{
  "source": "paper PMC12030678",
  "about": "“Investigations of In Vitro Anti-Acetylcholinesterase, Anti-Diabetic, Anti-Inflammatory, and Anti-Cancer Efficacy of Garden Cress (Lepidium sativum Linn.) Seed Extracts, as Well as In Vivo Biochemical and Hematological Assays” (Pharmaceutics, 2025)",
  "target": "T1, proteinase (trypsin) (Bos taurus, UniProt P00760)",
  "T1 sequence (P00760 24-246)": "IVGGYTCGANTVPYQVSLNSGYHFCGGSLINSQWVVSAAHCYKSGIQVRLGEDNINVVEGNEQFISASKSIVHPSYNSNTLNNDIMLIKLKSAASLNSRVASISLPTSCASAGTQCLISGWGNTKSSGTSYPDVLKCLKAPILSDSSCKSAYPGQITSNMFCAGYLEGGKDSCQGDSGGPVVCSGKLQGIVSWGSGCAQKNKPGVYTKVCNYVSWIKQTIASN",
  "assay": "Proteinase inhibitory activity (anti-arthritic)",
  "format": "biochemical",
  "conditions": "inhibition at 100 µg/mL",
  "data": [
    {"smiles": "O=C(O)Cc1ccccc1Nc1c(Cl)cccc1Cl", "note": "[Diclofenac Sodium]", "values": [
      {"measurement": "Proteinase (%)", "result": "50.82 ± 0.08 (Diclofenac Sodium) %"}
    ]}
  ]
}
